Experimental data published in US20030092603A1, “Identification of specific modulators of bone formation” (priority 2001, published 2003).

Key:
C2C12 cells [1] = assay: Osteocalcin production in C2C12 cells; format: cell-based; settings: BMP-2 100 ng/ml, 24 hours, FIG. 4b
Procedure: (§1) C2C12 cells were plated in 24-well culture plates at density of 2×10^4 cells/well and incubated with DMEM supplemented with 10% FCS. 24 h later, C2C12 cells were transfected with empty vector, Smad1 or mutant Smurf1 expression plasmid using lipofactamine plus reagents (Gibco/BRL). Recombinant human BMP-2 (100 ng/ml) (R & D) was added next day and the cells were incubated for additional 24 hours. At the end of incubation, the medium was collected for osteocalcin assay and the cell lysates were extracted using 200 μl 0.05% Triton X-100 (freeze-thaw 3 times) and the ALP activity was measured using a Sigma ALP assay kit (Sigma Chemical co., St Louis) and protein content was measured using Bio-Rad protein assay reagents. The ALP activity was calculated using these two parameters.

C2C12 cells [2] = assay: Alkaline phosphatase (ALP) activity in C2C12 cells; format: cell-based; settings: BMP-2 100 ng/ml, 24 hours, FIG. 4a
Procedure: as §1

[3] = system: neonatal murine calvarial bones; assay: Organ culture of neonatal murine calvarial bones, bone formation; format: cell-based, ICR Swiss mice; settings: 72 hours culture
Procedure: Organ cultures of neonatal murine calvarial bones were used as described by Traianedes, K., et al., Endocrinology (1998) 139:3178-3184. Bones were removed from the calvaria of 4-5 day old ICR Swiss mice and cultured in BGJ medium with 0.1% BSA for 72 hours together with test compounds. Mouse noggin/FC chimera was purchased from R&D Systems, Stillwater, Minn., and added at 2 μg/ml. This is a high affinity binding protein for BMP-2, BMP-4 and BMP-7.
Neonatal murine calvariae were transfected with either empty vector or truncated Gli3 (trGli3) using lipofectamine plus reagents for the first 24 hours and then treated with epoxomicin (20 nM) for the remaining 3 days of the assay according to Traianedes, et al., 1998 (supra).

B1: BMP-2: bone morphogenic protein; Recombinant human BMP-2 (R & D) in Example 5 (protein, UniProt P12643 283-396, looked up)
Bone morphogenetic protein 2: QAKHKQRKRLKSSCKRHPLYVDFSDVGWNDWIVAPPGYHAFYCHGECPFPLADHLNSTNHAIVQTLVNSVNSKIPKACCVPTELSAISMLYLDENEKVVLKNYQDMVVEGCGCR
osteocalcin production (C2C12 cells [1]): increased | ALP activity (C2C12 cells [2]): increased | bone formation in calvarial cultures [3]: bone stimulating effect
